The values that follow come from patent US5777190A (priority 1997, dated 1998).

Sequences of proteins named here, by UniProt entry; tags and fusion partners are left off. Residues count along the entry.
UniProt P00455, 56-369 limits assumed: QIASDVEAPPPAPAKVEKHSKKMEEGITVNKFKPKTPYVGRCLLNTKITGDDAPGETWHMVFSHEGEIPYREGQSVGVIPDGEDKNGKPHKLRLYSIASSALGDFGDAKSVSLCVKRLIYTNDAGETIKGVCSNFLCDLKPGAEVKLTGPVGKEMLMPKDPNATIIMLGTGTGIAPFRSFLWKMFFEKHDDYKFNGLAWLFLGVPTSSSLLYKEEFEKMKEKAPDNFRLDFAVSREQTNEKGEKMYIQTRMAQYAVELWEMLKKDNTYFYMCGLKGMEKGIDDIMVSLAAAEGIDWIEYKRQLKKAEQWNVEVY

Some compounds may have been tested in ways that are not shown here.

This experiment deals with ferredoxin NADP oxidoreductase (FNR, EC 1.18.1.2) from spinach (Spinacia oleracea, UniProt P00455).

For the molecule `Cc1c([N+](=O)[O-])cc([N+](=O)[O-])cc1[N+](=O)[O-]`, the “reduction by FNR under nitrogen (product formed)” value (0.4 units per ml FNR, 1 mM substrate, NADPH, tris buffer pH 8.5, under nitrogen, 22° C) is given as “reduced to one major metabolite”. For the same molecule, the “reduction by FNR under aerobic conditions” value (aerobic conditions) is “not reduced”.
